The values below are quoted from earlier work in publication PMC11747885, “Potent inhibitors of the human RNA ligase Rlig1 highlights its role in RNA integrity maintenance under oxidative cellular stress” (Chemical Science, 2025).

Values joined by “and” are separate entries in the source; they are usually repeats but may differ in a detail not shown here. Equal values may be shown once. Some results are limits rather than exact numbers.

Usually solubility stands for the dissolved amount per volume that the medium holds.

For this data set the following is noted: DMSO; ref MedChemExpress; cited from earlier work.

In the case of Plicamycin, the solubility was ≥ 100 mg/mL and ≥ 92.15 mM.
